# How the values were obtained:
# By UniProt entry, the sequences of proteins in these tests, tags left out.
# UniProt Q99250, whole entry: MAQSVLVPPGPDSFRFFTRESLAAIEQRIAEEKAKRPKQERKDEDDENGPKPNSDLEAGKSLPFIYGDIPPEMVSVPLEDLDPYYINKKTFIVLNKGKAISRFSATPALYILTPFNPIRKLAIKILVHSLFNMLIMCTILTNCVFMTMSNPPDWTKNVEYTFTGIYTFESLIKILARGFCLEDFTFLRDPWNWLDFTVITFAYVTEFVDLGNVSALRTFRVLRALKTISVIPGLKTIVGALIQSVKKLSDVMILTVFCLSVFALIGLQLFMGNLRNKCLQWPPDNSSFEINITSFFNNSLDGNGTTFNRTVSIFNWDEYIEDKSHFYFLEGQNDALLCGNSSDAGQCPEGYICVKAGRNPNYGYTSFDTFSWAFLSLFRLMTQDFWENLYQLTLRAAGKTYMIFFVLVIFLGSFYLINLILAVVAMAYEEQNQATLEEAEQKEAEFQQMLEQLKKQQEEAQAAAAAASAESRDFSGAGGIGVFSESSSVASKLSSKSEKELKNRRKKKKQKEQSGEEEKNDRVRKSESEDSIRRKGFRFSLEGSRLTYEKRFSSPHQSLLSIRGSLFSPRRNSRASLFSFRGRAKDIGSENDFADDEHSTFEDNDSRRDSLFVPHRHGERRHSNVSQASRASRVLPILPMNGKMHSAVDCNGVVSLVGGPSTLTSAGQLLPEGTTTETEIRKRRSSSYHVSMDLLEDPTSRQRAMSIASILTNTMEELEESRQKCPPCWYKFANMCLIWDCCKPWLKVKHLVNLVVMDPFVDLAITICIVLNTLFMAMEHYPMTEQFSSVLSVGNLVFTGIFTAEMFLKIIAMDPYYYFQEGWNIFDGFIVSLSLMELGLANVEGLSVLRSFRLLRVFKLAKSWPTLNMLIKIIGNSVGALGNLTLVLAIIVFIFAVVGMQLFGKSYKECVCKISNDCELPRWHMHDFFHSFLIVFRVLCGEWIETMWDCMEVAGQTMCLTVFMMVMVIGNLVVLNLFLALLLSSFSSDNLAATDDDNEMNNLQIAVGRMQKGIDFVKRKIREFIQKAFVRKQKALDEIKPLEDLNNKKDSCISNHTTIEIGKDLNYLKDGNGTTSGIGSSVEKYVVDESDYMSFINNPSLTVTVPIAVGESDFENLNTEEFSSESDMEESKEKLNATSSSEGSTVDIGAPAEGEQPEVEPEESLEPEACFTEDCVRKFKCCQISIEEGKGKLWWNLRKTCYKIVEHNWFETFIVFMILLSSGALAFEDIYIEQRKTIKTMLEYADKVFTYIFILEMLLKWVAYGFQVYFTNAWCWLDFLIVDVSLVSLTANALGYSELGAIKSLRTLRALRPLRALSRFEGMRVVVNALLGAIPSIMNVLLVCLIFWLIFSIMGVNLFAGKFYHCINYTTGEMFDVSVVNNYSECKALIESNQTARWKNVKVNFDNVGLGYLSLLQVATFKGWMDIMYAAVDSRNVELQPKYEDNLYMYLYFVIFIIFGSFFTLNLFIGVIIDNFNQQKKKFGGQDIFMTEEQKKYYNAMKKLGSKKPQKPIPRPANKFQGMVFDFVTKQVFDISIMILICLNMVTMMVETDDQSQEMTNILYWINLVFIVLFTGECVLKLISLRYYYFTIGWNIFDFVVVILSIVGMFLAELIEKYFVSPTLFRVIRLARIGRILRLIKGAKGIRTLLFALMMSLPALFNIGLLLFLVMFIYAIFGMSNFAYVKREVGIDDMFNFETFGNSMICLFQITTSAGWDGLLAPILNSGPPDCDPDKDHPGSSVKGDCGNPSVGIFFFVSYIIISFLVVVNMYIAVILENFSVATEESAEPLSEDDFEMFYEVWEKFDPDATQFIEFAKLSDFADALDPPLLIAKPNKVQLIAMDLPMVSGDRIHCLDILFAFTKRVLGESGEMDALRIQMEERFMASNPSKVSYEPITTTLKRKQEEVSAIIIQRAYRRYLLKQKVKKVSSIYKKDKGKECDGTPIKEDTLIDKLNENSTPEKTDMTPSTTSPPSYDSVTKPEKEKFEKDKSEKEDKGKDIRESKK
# UniProt Q9UQD0, whole entry: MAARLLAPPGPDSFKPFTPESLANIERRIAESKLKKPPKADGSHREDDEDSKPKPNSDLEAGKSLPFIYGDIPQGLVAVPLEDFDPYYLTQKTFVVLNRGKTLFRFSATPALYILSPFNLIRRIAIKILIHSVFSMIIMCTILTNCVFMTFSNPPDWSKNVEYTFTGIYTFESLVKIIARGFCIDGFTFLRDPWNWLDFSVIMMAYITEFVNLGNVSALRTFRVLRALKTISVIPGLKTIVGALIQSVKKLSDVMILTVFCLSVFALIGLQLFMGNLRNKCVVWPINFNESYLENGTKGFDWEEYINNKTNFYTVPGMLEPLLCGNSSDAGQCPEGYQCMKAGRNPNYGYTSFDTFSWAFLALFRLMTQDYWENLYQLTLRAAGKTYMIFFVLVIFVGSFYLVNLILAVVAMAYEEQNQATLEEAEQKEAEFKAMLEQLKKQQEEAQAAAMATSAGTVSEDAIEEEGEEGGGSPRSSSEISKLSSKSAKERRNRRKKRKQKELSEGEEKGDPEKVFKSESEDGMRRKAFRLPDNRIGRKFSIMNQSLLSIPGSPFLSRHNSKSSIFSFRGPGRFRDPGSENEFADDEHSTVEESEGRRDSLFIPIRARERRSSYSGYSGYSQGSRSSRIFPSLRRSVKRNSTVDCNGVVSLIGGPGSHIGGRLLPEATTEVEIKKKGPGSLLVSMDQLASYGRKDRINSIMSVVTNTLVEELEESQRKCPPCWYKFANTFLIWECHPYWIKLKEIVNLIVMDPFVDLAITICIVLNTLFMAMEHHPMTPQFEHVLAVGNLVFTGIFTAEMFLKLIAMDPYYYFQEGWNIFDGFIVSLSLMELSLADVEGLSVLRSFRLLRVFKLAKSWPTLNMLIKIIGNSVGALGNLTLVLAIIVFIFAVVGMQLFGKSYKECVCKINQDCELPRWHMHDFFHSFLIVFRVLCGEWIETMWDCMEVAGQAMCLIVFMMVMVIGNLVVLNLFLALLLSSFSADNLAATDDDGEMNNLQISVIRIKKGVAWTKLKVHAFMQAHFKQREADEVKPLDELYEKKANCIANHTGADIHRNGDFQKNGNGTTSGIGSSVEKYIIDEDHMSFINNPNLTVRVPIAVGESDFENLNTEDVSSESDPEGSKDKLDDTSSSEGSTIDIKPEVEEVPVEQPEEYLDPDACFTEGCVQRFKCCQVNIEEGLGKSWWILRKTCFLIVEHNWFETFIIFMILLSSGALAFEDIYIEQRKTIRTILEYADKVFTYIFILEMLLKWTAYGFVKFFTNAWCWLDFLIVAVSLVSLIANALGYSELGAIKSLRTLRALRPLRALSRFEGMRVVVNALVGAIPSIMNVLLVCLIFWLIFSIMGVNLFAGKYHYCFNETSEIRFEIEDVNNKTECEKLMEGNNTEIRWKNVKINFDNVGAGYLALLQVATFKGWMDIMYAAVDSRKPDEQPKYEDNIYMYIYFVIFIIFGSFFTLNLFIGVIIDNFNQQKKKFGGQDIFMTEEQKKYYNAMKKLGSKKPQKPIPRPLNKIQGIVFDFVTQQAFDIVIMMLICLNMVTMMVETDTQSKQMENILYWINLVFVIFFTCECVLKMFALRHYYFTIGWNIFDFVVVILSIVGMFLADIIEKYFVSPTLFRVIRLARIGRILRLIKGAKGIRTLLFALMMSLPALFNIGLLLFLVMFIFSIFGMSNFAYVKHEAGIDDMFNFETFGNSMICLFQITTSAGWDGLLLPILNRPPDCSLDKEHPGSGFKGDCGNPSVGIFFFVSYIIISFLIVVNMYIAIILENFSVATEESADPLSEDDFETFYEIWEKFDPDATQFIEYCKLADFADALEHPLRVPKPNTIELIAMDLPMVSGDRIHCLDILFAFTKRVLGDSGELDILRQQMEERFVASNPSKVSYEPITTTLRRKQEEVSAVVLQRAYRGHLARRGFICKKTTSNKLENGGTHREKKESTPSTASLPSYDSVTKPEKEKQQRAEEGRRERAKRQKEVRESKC
# UniProt Q15858, whole entry: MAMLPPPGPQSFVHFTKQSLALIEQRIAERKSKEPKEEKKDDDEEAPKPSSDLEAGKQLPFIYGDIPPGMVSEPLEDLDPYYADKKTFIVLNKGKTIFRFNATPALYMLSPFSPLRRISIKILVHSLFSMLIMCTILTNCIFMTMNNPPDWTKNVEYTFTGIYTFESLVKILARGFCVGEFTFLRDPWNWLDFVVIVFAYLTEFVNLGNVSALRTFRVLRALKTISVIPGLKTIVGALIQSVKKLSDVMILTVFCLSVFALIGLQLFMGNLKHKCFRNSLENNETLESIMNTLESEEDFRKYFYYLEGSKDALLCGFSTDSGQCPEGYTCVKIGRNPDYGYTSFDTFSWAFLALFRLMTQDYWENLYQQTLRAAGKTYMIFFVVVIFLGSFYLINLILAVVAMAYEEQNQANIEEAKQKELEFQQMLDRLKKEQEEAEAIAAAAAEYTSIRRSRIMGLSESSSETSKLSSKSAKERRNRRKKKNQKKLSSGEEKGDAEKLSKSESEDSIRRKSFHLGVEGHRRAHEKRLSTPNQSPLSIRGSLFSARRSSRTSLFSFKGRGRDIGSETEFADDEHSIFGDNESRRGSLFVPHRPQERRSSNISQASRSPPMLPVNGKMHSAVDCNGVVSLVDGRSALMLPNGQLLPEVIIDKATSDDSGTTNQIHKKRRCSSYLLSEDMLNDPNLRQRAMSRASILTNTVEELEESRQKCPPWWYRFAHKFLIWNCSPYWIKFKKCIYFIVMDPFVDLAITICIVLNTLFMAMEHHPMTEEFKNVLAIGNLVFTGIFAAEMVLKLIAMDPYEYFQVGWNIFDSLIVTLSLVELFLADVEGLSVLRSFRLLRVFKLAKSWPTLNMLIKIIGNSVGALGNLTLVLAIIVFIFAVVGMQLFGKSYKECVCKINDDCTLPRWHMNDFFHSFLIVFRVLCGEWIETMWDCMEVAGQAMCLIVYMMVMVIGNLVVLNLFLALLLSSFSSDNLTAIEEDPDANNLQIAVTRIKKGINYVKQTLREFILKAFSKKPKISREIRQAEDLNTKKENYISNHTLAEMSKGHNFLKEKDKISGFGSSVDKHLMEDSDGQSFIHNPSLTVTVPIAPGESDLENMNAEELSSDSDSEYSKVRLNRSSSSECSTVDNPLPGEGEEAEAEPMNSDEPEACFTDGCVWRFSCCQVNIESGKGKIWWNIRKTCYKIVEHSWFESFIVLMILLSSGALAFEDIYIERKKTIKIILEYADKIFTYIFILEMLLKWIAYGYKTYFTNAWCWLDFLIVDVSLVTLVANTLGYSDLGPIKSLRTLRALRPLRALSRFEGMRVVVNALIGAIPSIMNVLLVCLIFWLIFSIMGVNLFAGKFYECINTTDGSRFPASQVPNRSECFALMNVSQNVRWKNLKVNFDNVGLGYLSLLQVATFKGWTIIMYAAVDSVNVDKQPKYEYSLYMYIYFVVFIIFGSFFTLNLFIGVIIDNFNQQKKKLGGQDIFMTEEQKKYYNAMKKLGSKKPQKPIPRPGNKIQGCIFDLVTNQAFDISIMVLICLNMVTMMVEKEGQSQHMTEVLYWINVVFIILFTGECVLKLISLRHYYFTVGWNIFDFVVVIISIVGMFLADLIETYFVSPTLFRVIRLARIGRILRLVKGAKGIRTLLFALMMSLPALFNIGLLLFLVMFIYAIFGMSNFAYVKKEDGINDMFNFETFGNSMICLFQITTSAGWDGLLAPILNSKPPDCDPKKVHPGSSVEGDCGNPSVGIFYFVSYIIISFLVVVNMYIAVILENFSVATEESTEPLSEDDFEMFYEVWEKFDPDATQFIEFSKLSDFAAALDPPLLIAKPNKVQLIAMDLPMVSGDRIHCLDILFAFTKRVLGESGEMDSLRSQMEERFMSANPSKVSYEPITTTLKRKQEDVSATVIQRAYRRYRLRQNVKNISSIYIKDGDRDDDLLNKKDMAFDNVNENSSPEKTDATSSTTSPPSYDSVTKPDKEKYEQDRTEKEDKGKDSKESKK
# hNaV1.2 = hNaV1.2 (Homo sapiens, UniProt Q99250); experiment: FLIPR membrane potential assay, HEK 293 cells expressing hNaV1.2
# mouse and human NaV1.7 = settings: cited from earlier work
# hNaV1.6 = hNaV1.6 (Homo sapiens, UniProt Q9UQD0); experiment: FLIPR membrane potential assay, HEK 293 cells expressing hNaV1.6
# [1] = Solubility in phosphate-buffered saline; settings: diluted in phosphate-buffered saline/10% DMSO
# mice = experiment: Motor performance, Parallel Rod Floor Test; settings: 30 mg/kg i.p.; control 1.49 ± 0.16 m
# hNaV1.7 = hNaV1.7 (Homo sapiens, UniProt Q15858); experiment: FLIPR membrane potential assay, HEK 293 cells expressing hNaV1.7; assay type: cell-based; settings: HEK cells expressing Nav1.7; GpTx-1 100 μM, PF-04856264 10 μM, CNV1014802 100 μM; Figure S1
# hNaV1.1 = hNaV1.1 (Homo sapiens, UniProt P35498); experiment: FLIPR membrane potential assay, HEK 293 cells expressing hNaV1.1
smiles,measurement,setting,value
Cn1nccc1-c1ccccc1Oc1ccc(S(=O)(=O)Nc2nccs2)cc1C#N,IC50,"hNaV1.2; read-out: IC50 at hNaV1.2, veratridine 60 μM",20 µM
same,pIC50 ± SEM at hNaV1.2,hNaV1.2; three independent experiments,4.87 ± 0.3
same,potency at mouse versus human NaV1.7,mouse and human NaV1.7,equipotent
same,IC50,"hNaV1.6; read-out: IC50 at hNaV1.6, veratridine 60 μM",309 µM
same,pIC50 ± SEM at hNaV1.6,hNaV1.6; three independent experiments,3.53 ± 0.1
same,solubility,[1],poor solubility
same,distance travelled,mice,1.03 ± 0.17 m
same,effect on veratridine-induced response (sample trace),hNaV1.7,inhibited
same,IC50,"hNaV1.1; read-out: IC50 at hNaV1.1, veratridine 60 μM",247 µM
same,pIC50 ± SEM at hNaV1.1,hNaV1.1; three independent experiments,3.61 ± 0.1

# From PMC4810223 (Toxins, 2016)
